Source: EP1285918A1, “C7 Ester substituted taxanes as antitumor agents” (Florida State University Research Foundation, Inc., priority 2001, dated 2003)
Where two headings read alike, the source gives them in different places.

Assays:
[1] = system: A375 Human Melanoma Xenograft; conditions: 1393 104 mg/kg single oral bolus (Group 3), 10 mice, Day 60
Protocol: Female nu/nu mice (6-8 weeks of age; implanted subcutaneously with 1 mm^3 A375 melanoma fragments in the flank) were sorted into one control and four treatment groups of ten mice each (group mean tumor size of 96-98 mg). […] The study was terminated on Day 60.
(§1) The mean days of survival is the number of days after which a neoplasm reached a size of 2.0 g and the animal was euthanized. A complete response is obtained if the tumor is not palpable at the end of the study. A partial response is obtained if the tumor shrinks to a size smaller than its size on Day 1 of the study.

[2] = system: Panc-1 Human Pancreatic Carcinoma Xenografts; conditions: for stable disease / toxic deaths: Panc-1, 6 mice/group; for stable disease: i.v. qd x 1 (mg/kg: Taxol 24, 1393 72.6, 1418 107.6), Day 63; for toxic deaths: i.v. qd x 1 (mg/kg: Taxol 24, 1351 75.32, 1393 72.6, 1401 107.6, 1418 107.6, 1424 195.1)
Protocol: (§2) Other antitumor compounds were similarly formulated. […] The dosing volume was 0.3 mL per 20 g mouse.
Female NCr-nude mice (6-8 weeks of age, implanted subcutaneously with 1 mm^3 Panc-1 pancreatic carcinoma fragments in the flank) were sorted into treatment groups of six mice each. […] Dosing was initiated on Day 1. The antitumor compounds were given i.v. at an estimated maximum tolerated dose (MTD) appropriate for each agent on a qd x 1 schedule (single administration of compound). […] Taxotere was given i.v. at a dose of 70 mg/kg on a qd x 1 schedule. The vehicle was given i.v. to control mice in Group 1 in each test on Day 1 (qd x 1) schedule. Treatment groups are detailed in Table 12. The study was terminated on Day 63.
as §1, with “1.5” for “2.0”

[3] = system: SKMES Human Lung Carcinoma Xenograft; conditions: for complete responses: SKMES, 6 mice, Day 60
Protocol: Antitumor compounds were formulated for oral administration over a wide dose range in a study to investigate the efficacy of this compound against the SKMES human lung cancer xenograft. The antitumor compounds were prepared in the following vehicle: 5% ethanol, 5% Cremophor and 90% isotonic saline.
(§3) Female Nu/Nu mice (6-8 weeks of age; implanted with 1 mm^3 SKMES lung carcinoma fragments in the flank) were sorted into treatment groups of six mice each. SKMES size ranges and group mean SKMES size ranges were 126-448 mg and 238-241 mg, respectively. […] Treatments were administered as a single oral bolus on Day 1, and the study was terminated on Day 60.
(§4) The mean days of survival is the number of days after which a SKMES neoplasm reached a size of 2.0 g and the animal was euthanized. A complete response is obtained if the tumor is not palpable at the end of the study. A partial response is obtained if the tumor shrinks to a size smaller than its size on Day 1 of the study. […]

[4] = system: VM46 Human Colon Carcinoma Xenografts; conditions: for toxic deaths: VM46, i.v. qd x 1 at estimated MTD, 6 mice/group
Protocol: as §2
Female NCr-nude mice (6-8 weeks of age, implanted subcutaneously with 1 mm^3 VM46 colon carcinoma fragments in the flank) were sorted into treatment groups of six mice each. […] Dosing was initiated on Day 1. The antitumor compounds were given i.v. at an estimated maximum tolerated dose (MTD) appropriate for each agent on a qd x 1 schedule (single administration of compound). […] Taxotere was given i.v. at a dose of 70 mg/kg on a qd x 1 schedule. The vehicle was given i.v. to control mice in Group 1 in each test on Day 1 (qd x 1) schedule. Treatment groups are detailed in Table 13. The VM46 study ended on Day 64.
as §4, with “The results are summarized in table 14 and include mean days of survival (MDS), number of toxic deaths, number of survivors, number of complete or partial responses, and number with stable disease. The” for “The”, “a” for “a SKMES”, “1.5” for “2.0”

[5] = system: SKMES Human Lung Carcinoma Xenograft
Protocol: The antitumor compound was prepared in the following vehicle: 10% ethanol and 90% Liposyn III.
as §3, with “i.v.” for “oral”
The mean days of survival is the number of days after which a SKMES neoplasm reached a size of 2.0 g and the animal was euthanized. A complete response is obtained if the tumor is not palpable at the end of the study. A partial response is obtained if the tumor shrinks to a size smaller than its size on Day 1 of the study.

[6] = 1418 single i.v. bolus 108 mg/kg (Group 3), 6 mice, Day 60

Row | SMILES | complete regression responses [1] | stable disease [2] | complete responses ([3]; 1393 single oral bolus 73 mg/kg (Group 6)) | complete responses ([3]; 1393 single oral bolus 104 mg/kg (Group 5)) | toxic deaths [4] | toxic deaths [2] | tolerability ([4]; mouse, in vivo, iv) | MDS relative to Group 1 control ([5]; 1418 single i.v. bolus 15 mg/kg (Group 5)) | complete response [5, 6] | partial responses [5, 6] | complete responses ([5]; 1418 single i.v. bolus 154 mg/kg (Group 2), 10% ethanol/90% Liposyn III, 6 mice, Day 60) | tolerability ([2]; mouse, in vivo, iv) | Survivors ([3]; 90 mg/kg single oral bolus Day 1, 6 mice/group, study end Day 60)
1 | CCC(=O)OC1CC2OCC2(OC(C)=O)C2C(OC(=O)c3ccccc3)C3(O)CC(OC(=O)C(O)C(NC(=O)OC(C)(C)C)c4ccco4)C(C)=C(C(O)C(=O)C12C)C3(C)C (stereo not shown) [Compound 1393, 3'-Desphenyl-3'-(2-furyl)-7-propionyl taxotere] | nine | one | Five | Five | – | – | – | – | – | – | – | – | –
2 | CCC(=O)O[C@H]1C[C@H]2OC[C@@]2(OC(C)=O)[C@H]2[C@H](OC(=O)c3ccccc3)[C@]3(O)C[C@H](OC(=O)[C@H](O)[C@@H](NC(=O)OC(C)(C)C)c4ccco4)C(C)=C([C@@H](O)C(=O)[C@]12C)C3(C)C [Compound 1393, 3'-Desphenyl-3'-(2-furyl)-7-propionyl taxotere] | – | – | – | – | no toxic deaths | no toxic deaths | – | – | – | – | – | – | –
3 | CCC(=O)O[C@H]1C[C@H]2OC[C@@]2(OC(C)=O)[C@H]2[C@H](OC(=O)c3ccccc3)[C@]3(O)C[C@H](OC(=O)[C@H](O)[C@@H](NC(=O)OC(C)(C)C)c4cccs4)C(C)=C([C@@H](O)C(=O)[C@]12C)C3(C)C [Compound 1418] | – | one | – | – | no toxic deaths | no toxic deaths | quite well-tolerated | essentially the same | One | two | Five | well-tolerated | 6
